Amino acid sequences for entries named in this document (tags omitted). Residues count along the entry.
UniProt O75173, 213-837, species assumed: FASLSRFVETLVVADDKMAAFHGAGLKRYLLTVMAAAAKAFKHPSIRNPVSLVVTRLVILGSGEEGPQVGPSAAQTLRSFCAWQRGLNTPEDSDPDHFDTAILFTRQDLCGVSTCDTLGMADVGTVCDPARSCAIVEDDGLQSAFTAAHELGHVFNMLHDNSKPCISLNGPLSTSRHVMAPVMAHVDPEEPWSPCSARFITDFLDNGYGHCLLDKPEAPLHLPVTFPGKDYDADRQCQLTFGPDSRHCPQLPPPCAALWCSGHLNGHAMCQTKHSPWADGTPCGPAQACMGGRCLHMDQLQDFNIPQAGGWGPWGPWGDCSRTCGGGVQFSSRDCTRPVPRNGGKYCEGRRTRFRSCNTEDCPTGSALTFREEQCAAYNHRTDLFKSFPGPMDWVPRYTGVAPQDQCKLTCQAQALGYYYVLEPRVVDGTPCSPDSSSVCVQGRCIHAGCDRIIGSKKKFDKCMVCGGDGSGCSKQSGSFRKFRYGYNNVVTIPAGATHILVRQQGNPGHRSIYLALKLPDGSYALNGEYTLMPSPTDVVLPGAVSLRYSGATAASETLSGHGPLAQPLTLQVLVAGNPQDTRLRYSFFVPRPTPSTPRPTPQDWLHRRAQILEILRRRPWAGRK
UniProt Q9UNA0, 262-930, species assumed: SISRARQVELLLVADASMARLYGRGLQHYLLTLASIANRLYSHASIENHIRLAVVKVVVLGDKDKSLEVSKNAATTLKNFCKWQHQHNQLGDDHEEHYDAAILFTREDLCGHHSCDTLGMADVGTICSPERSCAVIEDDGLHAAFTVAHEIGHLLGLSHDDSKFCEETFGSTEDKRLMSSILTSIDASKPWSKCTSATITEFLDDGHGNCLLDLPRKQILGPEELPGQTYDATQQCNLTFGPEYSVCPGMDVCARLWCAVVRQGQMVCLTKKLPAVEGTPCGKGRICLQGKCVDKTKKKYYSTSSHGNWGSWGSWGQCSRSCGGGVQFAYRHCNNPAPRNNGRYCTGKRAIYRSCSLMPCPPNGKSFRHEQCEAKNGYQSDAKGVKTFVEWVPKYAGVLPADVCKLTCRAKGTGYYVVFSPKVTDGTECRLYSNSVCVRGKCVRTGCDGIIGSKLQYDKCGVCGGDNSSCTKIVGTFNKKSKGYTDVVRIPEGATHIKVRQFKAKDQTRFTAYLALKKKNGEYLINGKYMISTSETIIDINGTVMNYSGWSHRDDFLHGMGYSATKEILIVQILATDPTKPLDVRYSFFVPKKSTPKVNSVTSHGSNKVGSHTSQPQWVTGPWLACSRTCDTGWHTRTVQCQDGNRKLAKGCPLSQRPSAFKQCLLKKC
UniProt A0A8I3Q3A2, 1-992: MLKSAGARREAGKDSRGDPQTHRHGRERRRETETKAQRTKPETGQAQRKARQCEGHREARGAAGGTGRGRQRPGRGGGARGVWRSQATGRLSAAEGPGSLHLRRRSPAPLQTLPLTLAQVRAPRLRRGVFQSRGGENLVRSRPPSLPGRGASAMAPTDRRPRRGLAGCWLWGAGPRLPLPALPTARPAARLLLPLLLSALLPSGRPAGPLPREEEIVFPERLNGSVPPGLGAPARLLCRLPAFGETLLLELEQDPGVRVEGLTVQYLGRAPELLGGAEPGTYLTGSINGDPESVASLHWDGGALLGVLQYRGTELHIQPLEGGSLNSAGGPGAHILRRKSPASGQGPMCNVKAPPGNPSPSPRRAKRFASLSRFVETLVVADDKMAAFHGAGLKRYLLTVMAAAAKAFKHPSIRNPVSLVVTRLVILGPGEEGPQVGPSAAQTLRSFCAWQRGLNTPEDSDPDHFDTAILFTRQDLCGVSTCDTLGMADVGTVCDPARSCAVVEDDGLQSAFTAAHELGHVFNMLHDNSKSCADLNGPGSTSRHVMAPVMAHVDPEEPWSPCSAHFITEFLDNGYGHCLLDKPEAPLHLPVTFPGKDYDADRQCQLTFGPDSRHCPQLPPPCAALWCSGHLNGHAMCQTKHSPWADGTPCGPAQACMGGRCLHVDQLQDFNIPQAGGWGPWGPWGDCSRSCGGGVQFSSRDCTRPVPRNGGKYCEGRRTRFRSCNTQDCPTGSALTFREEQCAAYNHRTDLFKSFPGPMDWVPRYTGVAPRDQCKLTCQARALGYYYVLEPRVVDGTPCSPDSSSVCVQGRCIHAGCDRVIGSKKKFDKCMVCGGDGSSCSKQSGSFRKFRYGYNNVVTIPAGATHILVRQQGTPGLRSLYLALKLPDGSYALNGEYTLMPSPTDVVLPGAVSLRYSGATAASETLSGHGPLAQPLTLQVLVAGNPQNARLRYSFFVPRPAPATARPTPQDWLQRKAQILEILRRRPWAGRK

According to US9206139B2, “Aggrecanase inhibitors” (Eli Lilly and Company, priority 2012, dated 2015):

Legend:
Assay type in all cases: biochemical
ADAMTS-4 = ADAMTS-4 (Homo sapiens (Human), UniProt O75173); test: ADAMTS-4 AlphaScreen assay; details: buffer
Experimental: (§1) ADAMTS-4 and ADAMTS-5 AlphaScreen Assay:
(§2) The plate is covered with aluminum foil tape and the binding is allowed to incubate overnight. The plate is then read on an AlphaScreen Fusion Alpha reader from Perkin Elmer. Data is analyzed using ActivityBase™ software (IDBS Alameda, Calif.). A similar assay is used with purified dog ADAMTS-4 enzyme.

ADAMTS-5 [1] = biological target: T1, ADAMTS-5 (Homo sapiens (Human), UniProt Q9UNA0); test: ADAMTS-5 AlphaScreen assay; details: buffer
Experimental: as §1, §2

dog ADAMTS-4 [2] = biological target: T2, dog ADAMTS-4 (Canis lupus familiaris, UniProt A0A8I3Q3A2); test: Dog ADAMTS-4 AlphaScreen assay; details: purified dog ADAMTS-4 enzyme
Experimental: as §2

dog ADAMTS-4 [3] = biological target: T2, dog ADAMTS-4; test: Dog plasma shift AlphaScreen assay; details: dog ADAMTS-4 in 25% dog plasma
Experimental: (§3) Rat and Dog Plasma Shift AlphaScreen Assay
(§4) The assay is completed in the same manner using 10 nM ADAMTS-5 instead of 2.1 nM. A similar assay is used with dog ADAMTS-4 in the presence of 25% dog plasma.

ADAMTS-5 [4] = biological target: T1, ADAMTS-5; test: Rat plasma shift AlphaScreen assay; details: ADAMTS-5 in 50% Lewis rat plasma
Experimental: as §3, §4

Structure (SMILES)	IC50 (ADAMTS-4)	IC50 (ADAMTS-5 [1])	IC50 (dog ADAMTS-4 [2])	IC50 (dog ADAMTS-4 [3])	IC50 (ADAMTS-5 [4])
C[C@H](Cc1ccc(C(F)(F)F)cc1)C(=O)NC[C@@]1(C2CC2)NC(=O)NC1=O [Example 1, (2R)—N-[[(4R)-4-cyclopropyl-2,5-dioxo-imidazolidin-4-yl]methyl]-2-methyl-3-[4-(trifluoromethyl)phenyl]propanamide]	2 nM	–	–	–	–
O=C1NC(=O)[C@](CNC(=O)[C@@H](Cc2ccc(C(F)(F)F)cc2)C2CC2)(C2CC2)N1 [Example 3, (2S)-2-cyclopropyl-N-[[(4R)-4-cyclopropyl-2,5-dioxo-imidazolidin-4-yl]methyl]-3-[4-(trifluoromethyl)phenyl]propanamide]	2 nM	2 nM	2 nM	101 nM	18 nM
